Laboratory results published in patent publication US11760764B2, “Methods and compositions for targeting PD-L1” (Aligos Therapeutics, Inc., priority 2020, dated 2023).

Amino acid sequences for entries named in this document (tags omitted). Residues count along the entry.
UniProt Q9NZQ7, 19-238 limits assumed: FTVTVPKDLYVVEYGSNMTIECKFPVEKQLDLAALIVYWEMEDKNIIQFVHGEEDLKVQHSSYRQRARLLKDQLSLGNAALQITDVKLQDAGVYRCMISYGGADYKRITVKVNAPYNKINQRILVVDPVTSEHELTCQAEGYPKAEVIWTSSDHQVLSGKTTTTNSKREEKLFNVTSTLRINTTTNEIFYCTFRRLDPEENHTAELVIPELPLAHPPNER
UniProt Q9NZQ7, 19-290 limits assumed: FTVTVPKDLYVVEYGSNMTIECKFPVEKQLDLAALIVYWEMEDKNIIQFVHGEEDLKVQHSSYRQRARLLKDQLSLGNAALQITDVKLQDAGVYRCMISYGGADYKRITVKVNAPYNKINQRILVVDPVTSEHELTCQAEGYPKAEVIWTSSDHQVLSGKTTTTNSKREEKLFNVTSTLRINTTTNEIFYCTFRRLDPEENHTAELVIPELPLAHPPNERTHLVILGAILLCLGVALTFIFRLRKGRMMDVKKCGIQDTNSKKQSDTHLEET

Experiments:
[1] = biological target: PD-1/PD-L1 interaction (PDL1-6×His protein, PD1-Fc-Avi-Biotin protein) (Homo sapiens, UniProt Q9NZQ7); experiment: PDL1/PD1 Binding Assay; details: read-out: Biological Data Biochem PD-1/PD-L1; Table C-1; 0.3 nM PDL1, 2.5 nM PD1
[2] = biological target: PD-1/PD-L1 interaction (Jurkat cells overexpressing PD-1 co-cultured with PD-L1 expressing CHO cells) (Homo sapiens, UniProt Q9NZQ7); experiment: PD-1/PD-L1 NFAT Reporter Assay; details: read-out: PD-1/PD-L1 NFAT Reporter Assay; Table C-1; Jurkat/CHO co-culture, 6 hrs at 37° C., luciferase activity
Description: Blocking the PD-1/PD-L1 interaction will release the inhibitory signal and results in TCR signaling and NFAT-mediated luciferase activity.
CHO cells expressing surface-bound anti-CD3 antibodies and PD-L1 were first seeded overnight and treated with the compounds. Jurkat cells overexpressing PD-1 and a luciferase construct under NF-AT promoter were then immediately seeded on the monolayer of CHO cells. The co-culture was then incubated for 6 hrs at 37° C. Luciferase activity was assessed by adding the ONE-Glo reagent and measuring luminescence with a plate reader. EC50s values were determined from the fit of the dose-response curves

- pIC50 [1]: > 8.00
- pEC50 [2]: 6.00 to 7.00
SMILES: CCOC(=O)C1CN(C2CCc3cc(-c4cccc(-c5cccc(-c6cc7c(c(OC)c6)C(N6CC(C(=O)O)C6)CC7)c5Cl)c4Cl)cc(OC)c32)C1 (centres unmarked)

pEC50, pIC50: −log10 of the molar value.
